Like-named read-outs stand apart in the source and are kept apart here.
System: AON mutant fly strain
Type: in vivo, Drosophila melanogaster
Method: Each compound was prepared over a range of dilutions and each was tested for the activity of alleviating the adult onset neurodegeneration condition. The compound dilutions were uptaken by either the larva or adult flies. The compound dilutions were mixed into the nutrient media and this served as the food/water source for either larva or flies. The adult onset neurodegeneration symptoms and their timelines were monitored for each compound dilution and compared to the no treatment control. Compounds examined here included: beta-estradiol, zinc chloride, sodium chloride, water, chocolate, and phosphate buffered saline.
To test whether this AON mutant condition is a good model for human AON conditions (Alzheimer's, stroke, Parkinson's, etc.), compounds known to influence human AON conditions were administered orally to the mutant AON fly strain. In addition, compounds were also tested in the AON mutant fly strain that were known not to influence human AON conditions. Finally, a complex mixture with unknown influence on human AON conditions was tested in the AON mutant fly strain.
To validate the AON fly for drug discovery relevant to human biology and diseases, this fly strain was subjected to an extensive array of chemicals that are known to have their effect on the human nervous system.

What does the source list for `Nc1nc2ccc(OC(F)(F)F)cc2s1` [Riluzole]?
L.D. (dose 1 mg/ml): L.D. 100; L.D. (dose .1 mg/ml): L.D. 100 (some

Reference: patent publication US6489535B1, “Non-mammalian transgenic animal having an adult onset neurodegenerative phenotype” (priority 1999, dated 2002)
